Our source for the IC50 values is patent US8017638B2, “Isoxazole derivative and isothiazole derivative having inhibitory activity on 11β-hydroxysteroid dehydrogenase type 1” (Shionogi & Co., Ltd., priority 2006, dated 2011).

By UniProt entry, the sequences of proteins in these tests, tags left out.
UniProt P28845, whole entry: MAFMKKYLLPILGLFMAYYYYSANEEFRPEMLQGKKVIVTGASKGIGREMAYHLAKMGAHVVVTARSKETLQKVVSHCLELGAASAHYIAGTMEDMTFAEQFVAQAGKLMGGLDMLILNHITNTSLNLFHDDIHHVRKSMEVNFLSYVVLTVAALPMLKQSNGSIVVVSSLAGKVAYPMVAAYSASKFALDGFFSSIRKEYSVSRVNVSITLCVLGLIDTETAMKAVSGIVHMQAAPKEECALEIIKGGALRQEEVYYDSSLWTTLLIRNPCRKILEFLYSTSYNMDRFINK
UniProt P50172, whole entry: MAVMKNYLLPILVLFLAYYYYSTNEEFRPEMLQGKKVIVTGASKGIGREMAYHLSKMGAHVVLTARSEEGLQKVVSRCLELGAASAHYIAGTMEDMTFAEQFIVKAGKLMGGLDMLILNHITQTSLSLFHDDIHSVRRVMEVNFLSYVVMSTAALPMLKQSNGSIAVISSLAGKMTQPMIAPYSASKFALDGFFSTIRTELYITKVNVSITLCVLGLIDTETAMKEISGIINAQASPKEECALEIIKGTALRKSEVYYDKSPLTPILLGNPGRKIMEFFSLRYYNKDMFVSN

The target of assay [1] is recombinant human 11β-HSD1 (Homo sapiens, UniProt P28845). Briefly: Enzyme activity assay on human 11β-HSD1 (HTRF, cortisol production). Conditions: read-out: humanIC50, recombinant human 11β-HSD1, 5 μM cortisone as substrate, 2 hours at 37° C., tested form: hydrochloride. As to the method:
Evaluation of 11β-HSD1 Inhibitors (Enzyme Activity Assay on Human 11β-HSD1)
Enzymatic activity for human 11β-HSD1 was determined in a 10 μl final volume of assay mixture containing 50 mM sodium phosphate buffer (pH 7.6), 1 mg/ml bovine serum albumin, 0.42 mg/ml NADPH, 1.26 mg/ml glucose-6-phosphate, glucose-6-phosphate dehydrogenase, test compound, recombinant human 11β-HSD1, and 5 μM cortisone as substrate. The reaction was started with the addition of cortisone. After incubation for 2 hours at 37° C., 5 μl of europium cryptate-labelled anti-cortisol antibody and 5 μl of XL665-labeled cortisol were added. After further incubation for 2 hours at room temperature, the homogeneous time-resolved fluorescence (HTRF) signal was measured. The cortisol production was quantitated by a standard curve generated with several known concentrations of cortisol in each assay.
The amount of cortisol production without compounds served as control, and the percent inhibition by test compound at each concentration was calculated. The IC50 value of the compound for 11β-HSD1 was obtained using the inhibition curve generated by plotting the percent inhibition versus the concentration of test compound.
For orientation: Time-resolved FRET reads energy transfer from a long-lived donor to a nearby acceptor.

The target of assay [2] is recombinant mouse 11β-HSD1 (Mus musculus, UniProt P50172). The assay is described as follows: Enzyme activity assay on mouse 11β-HSD1 (HTRF, corticosterone production). Conditions: read-out: mouseIC50, recombinant mouse 11β-HSD1, 2 μM 11-dehydrocorticosterone as substrate, 2 hours at 37° C., tested form: hydrochloride. As for the experimental part:
Evaluation of 11β-HSD1 Inhibitors (Enzyme Activity Assay on Mouse 11β-HSD1)
Enzymatic activity for mouse 11β-HSD1 activity was determined in a 10 μl final volume of assay mixture containing 50 mM sodium phosphate buffer (pH 7.6), 1 mg/ml bovine serum albumin, 0.42 mg/ml NADPH, 1.26 mg/ml glucose-6-phosphate, glucose-6-phosphate dehydrogenase, test compound, recombinant mouse 11β-HSD1, and 2 μM 11-dehydrocorticosterone as substrate. The reaction was started with the addition of 11-dehydrocorticosterone. After incubation for 2 hours at 37° C., 5 μl of europium cryptate-labelled anti-cortisol antibody and 5 μl of XL665-labeled cortisol were added. After further incubation for 2 hours at room temperature, the HTRF signal was measured. The corticosterone production was quantitated by a standard curve generated with several known concentrations of corticosterone in each assay.
The amount of corticosterone production without compounds served as control, and the percent inhibition by compound at each concentration was calculated. The IC50 value of the compound for 11β-HSD1 was obtained using the inhibition curve generated by plotting the percent inhibition versus the concentration of test compound.

Regarding `CC(C)Sc1c(OCC(C)(C)C(=O)NC2CCNCC2)noc1C(=O)NC1C2CC3CC(C2)CC1C3` (centres unmarked), the values for the IC50 in assay [1] and in assay [2] were 820 nM and 170 nM, respectively.
